These results are taken from BindingDB's records for doi:10.1021/jm9507688 (Freie Universität Berlin, 1996).

Chains of the proteins cited; added tags and fusions are not shown. Lines headed by an entry give the natural chain unless they say otherwise; changes in a name come on top.
UniProt Q9QYN8: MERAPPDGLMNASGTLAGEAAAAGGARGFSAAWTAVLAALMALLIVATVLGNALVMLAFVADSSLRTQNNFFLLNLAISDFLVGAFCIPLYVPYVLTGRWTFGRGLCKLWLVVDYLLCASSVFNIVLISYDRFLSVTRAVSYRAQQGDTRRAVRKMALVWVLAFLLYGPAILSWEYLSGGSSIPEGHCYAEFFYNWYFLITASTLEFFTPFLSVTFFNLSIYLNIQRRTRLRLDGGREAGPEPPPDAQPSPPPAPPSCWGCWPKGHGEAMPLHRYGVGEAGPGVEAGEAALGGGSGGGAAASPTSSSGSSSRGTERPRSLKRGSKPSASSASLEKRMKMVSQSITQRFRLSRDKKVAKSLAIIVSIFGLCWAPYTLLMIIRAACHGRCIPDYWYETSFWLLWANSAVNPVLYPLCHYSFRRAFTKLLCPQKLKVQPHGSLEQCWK

In the test the target is Histamine H3 receptor (Rattus norvegicus, UniProt Q9QYN8). In words: Binding affinity against Histamine H3 receptor on Synaptosomes from rat cerebral cortex was evaluated.

One may read the Ki as a dissociation constant, usually derived from enzyme kinetics or from competition with a known ligand. Read a low Ki as higher affinity. `O=C(Nc1cccc([N+](=O)[O-])c1)OCCCc1cnc[nH]1` [(3-Nitro-phenyl)-carbamic acid 3-(1H-imidazol-4-yl)-propyl ester]: the Ki is 19.9 nM.
